Experiments:
[1] = molecular target: Carbonic anhydrase 4 (Homo sapiens) (UniProt P22748); assay: Activation of human recombinant truncated CA4 at 10 uM by stopped-flow CO2 hydration method
[2] = molecular target: Carbonic anhydrase 3 (Homo sapiens) (UniProt P07451); assay: Activation of human recombinant CA3 at 10 uM by stopped-flow CO2 hydration method

Sequences of proteins named here, by UniProt entry; tags and fusion partners are left off. A change or cut given only in a name is not applied to a line headed by its entry.
UniProt P22748: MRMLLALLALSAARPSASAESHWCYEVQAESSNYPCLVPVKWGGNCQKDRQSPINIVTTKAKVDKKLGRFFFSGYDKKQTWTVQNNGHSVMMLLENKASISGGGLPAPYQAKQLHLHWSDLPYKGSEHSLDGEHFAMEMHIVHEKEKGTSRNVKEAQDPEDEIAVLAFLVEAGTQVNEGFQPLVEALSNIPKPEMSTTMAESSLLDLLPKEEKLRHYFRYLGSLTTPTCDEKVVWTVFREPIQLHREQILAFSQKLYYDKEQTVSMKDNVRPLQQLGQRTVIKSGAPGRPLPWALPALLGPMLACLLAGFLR
UniProt P07451: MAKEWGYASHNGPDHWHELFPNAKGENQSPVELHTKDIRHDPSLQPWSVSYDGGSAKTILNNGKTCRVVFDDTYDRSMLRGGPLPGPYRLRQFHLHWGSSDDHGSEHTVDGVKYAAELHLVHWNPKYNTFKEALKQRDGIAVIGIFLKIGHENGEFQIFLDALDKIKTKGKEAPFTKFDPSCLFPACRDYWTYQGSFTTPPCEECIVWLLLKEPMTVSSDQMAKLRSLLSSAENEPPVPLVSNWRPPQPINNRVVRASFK

Ka [1] [µM] | Ka [2] [µM] | SMILES
36.3 | 34.7 | N[C@@H](Cc1ccccc1)C(=O)O
49.3 | 15.4 | N[C@H](Cc1ccccc1)C(=O)O
